# scFv variants of Ab-14 (light chain) against a SARS-CoV-2 spike peptide

Values reported by Engelhart et al. 2022, doi:10.1038/s41597-022-01779-4 (FLAb copy).

Binding partner: SARS-CoV-2 spike HR2 peptide, sequence PDVDLGDISGINAS.

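The parent was found by panning a naive human phage display library on the peptide. In library AAYL50, one, two or three CDR residues were substituted; doubles and triples were drawn at random. Affinity was read by AlphaSeq, a pooled yeast mating assay with surface-displayed partners. Mating (16 h, 30 °C) was followed by selection of diploids and sequencing of their barcodes. The ratio of observed to expected reads was calibrated, replicate by replicate, on BCL2-family standards whose Kd was known from biolayer interferometry. There are three technical replicates.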

Parent: Ab-14, a human scFv built as VH, three GGGGS repeats, VL. Only the CDRs of the light chain vary.
VH: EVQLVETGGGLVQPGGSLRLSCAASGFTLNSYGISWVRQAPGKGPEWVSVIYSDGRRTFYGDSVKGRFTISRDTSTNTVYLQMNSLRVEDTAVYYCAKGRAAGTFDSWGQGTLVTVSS
VL: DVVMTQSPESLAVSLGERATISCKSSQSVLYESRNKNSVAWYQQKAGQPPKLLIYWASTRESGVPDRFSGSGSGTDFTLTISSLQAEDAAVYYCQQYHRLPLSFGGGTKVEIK

Variants are written as CDR1, CDR2 and CDR3 of the light chain (limits as in the source). Parent: KSSQSVLYESRNKNSVA, WASTRES, QQYHRLPLS.
Numbers give log10(Kd / nM), so 0 is 1 nM and 3 is 1 µM. Smaller is tighter.
The mean shown is taken over the replicates in which the pair was detected.
"no signal" means that the variant was in the library but no mating with the target was seen in any replicate; the authors take this as a sign of poor binding, and no number exists.

| CDR-L1 | CDR-L2 | CDR-L3 | mean log10 Kd (nM) | replicates with signal |
|---|---|---|---|---|
| KSSQSVLPESRNKNSPA | WASTREV | QQYHRLPLS | 4.57 | 1 of 3 |
| KSSQSVLYESRNKNSVL | WASTRES | QQYHRLQLV | no signal | 0 of 3 |
| KSSQSVLIESGNKNSVA | WASTRES | QQYHRLRLS | 1.10 | 3 of 3 |
| DSSQSVLYESRNPNSVA | WAFTRES | QQYHRLPLS | no signal | 0 of 3 |
| KSSQSVLYESRNKNSVA | WFSTRES | KQYHRLPKS | 4.61 | 2 of 3 |
| KSSQSVLYESRNKGSVI | WASTRDS | QQYHRLPLS | no signal | 0 of 3 |
| KSSQSVLYESRNKNNVA | LASTRES | QQYHRLPLS | 0.48 | 3 of 3 |
| KSSQSVLIESRNKNSVA | WCSTRED | QQYHRLPLS | 1.91 | 3 of 3 |
| KSSQSVRYESRNKNSVA | WVSTREP | QQYHRLPLS | 2.10 | 3 of 3 |
| KSNQSVLYESRNKNSVA | WASTRES | TQYHRVPLS | 2.07 | 3 of 3 |
| KSSQSVLYESKNKNLVA | CASTRES | QQYHRLPLS | 3.70 | 1 of 3 |
| KSSQSVLTESRNYNSVA | WLSTRES | QQYHRLPLS | 2.63 | 3 of 3 |
| KSSQSVVYESRNKNSVK | WASTRES | QQYHRPPLS | 4.51 | 1 of 3 |
| KSSQSFLYESRNKWSVA | WASTRES | QQYHRLPLS | 1.73 | 3 of 3 |
| KSSQSVLYESRFKNSVA | GASTRES | QQYHRLPLS | 0.13 | 3 of 3 |
| KSSQSVLMESRNKNSVA | HASTRES | QQYHRYPLS | 0.20 | 3 of 3 |
| KSSQSWLYESRYKNSVA | WASTRES | QQYHRLRLS | 3.37 | 1 of 3 |
| KSSASVLYESRNKNSVT | WASTRAS | QQYHRLPLS | no signal | 0 of 3 |
| KSSQSVLYESTNLNSVA | WASTRES | QQYHFLPLS | 0.98 | 3 of 3 |
| KSSQSWLYESRNKNSVA | WASTRIS | QQYHRLPLS | no signal | 0 of 3 |
| KSSQSVLYECRNKNSVA | WASTPES | QQYHRLPLM | no signal | 0 of 3 |
| KSSQSVLYESQNKNSVA | WASTRES | QQYHRWHLS | 1.82 | 3 of 3 |
| KSSQSVLYESRNKASVA | WASTRES | QQYHRCDLS | 1.40 | 3 of 3 |
| KSSQSVLYESRNKNSCA | WARTRES | QQYHRLPLS | no signal | 0 of 3 |
| KSSQSVLYESRNKCSAS | WASTRES | QQYHRLPLS | no signal | 0 of 3 |
| KSSQSVLYESRNKNSVW | WASTRES | QQYHRKPLS | no signal | 0 of 3 |
| KSSQSVLYEIRNNNSVA | WASTNES | QQYHRLPLS | 4.75 | 1 of 3 |
| KSSQSVLYESRNKNSVA | WTSTREQ | QQYHRPPLS | 0.70 | 3 of 3 |
| KSSQSVLYESRMKGSVA | WASTFES | QQYHRLPLS | 4.10 | 1 of 3 |
| KSSQSNLYESRNKNSVA | WASTVES | QQYHRLPES | no signal | 0 of 3 |
| KSSQSVLYRSRNKNSVA | WASTRES | QQFHRLPLE | 3.70 | 3 of 3 |
| KSSQSGLYESRNKNSVA | WASIRES | QQYHMLPLS | 0.33 | 3 of 3 |
| KSSQSVLYESRNKNSVA | WMSTRES | GQYHRLPLE | no signal | 0 of 3 |
| KSSASVLYECRNKNSVA | WASTRNS | QQYHRLPLS | 4.38 | 2 of 3 |
| KSSTSVLYESRNKNSVD | WASTRES | QQYHCLPLS | no signal | 0 of 3 |
| KSSQSVLYESRNKHSVA | HASTRES | QQYHRLPLS | 0.98 | 3 of 3 |
| KSTQSVPYESRNKNDVA | WASTRES | QQYHRLPLS | 2.25 | 3 of 3 |
| KSSQSVLYESRPKNSVA | WDTTRES | QQYHRLPLS | no signal | 0 of 3 |
| KSSQSVLYESRNQNSVW | WASTRDS | QQYHRLPLS | no signal | 0 of 3 |
| KSMQSVLQESRNKNEVA | WASTRES | QQYHRLPLS | 2.21 | 3 of 3 |
| KSKQSVLYESTNKNSVA | WASTRTS | QQYHRLPLS | 4.17 | 1 of 3 |
| KASQSNLYESRNKESVA | WASTRES | QQYHRLPLS | 1.30 | 3 of 3 |
| KSSQQVLYEWRNKNSVA | WASTTES | QQYHRLPLS | 5.07 | 1 of 3 |
| KSSQSVLYESRNKNSGA | WASTRNS | QQYHRLPLS | no signal | 0 of 3 |
| KSSQSVLYESRYKNSQA | WASTRES | QTYHRLPLS | no signal | 0 of 3 |
| KWSQSVLYESRNKNSVA | WASTRES | QMYHRLALS | 1.54 | 3 of 3 |
| KSSQSVEYESRNKNSNA | WASTGES | QQYHRLPLS | no signal | 0 of 3 |
| KSSQSVPLESRNKNSVA | WASTRES | QQHHRLPLS | 3.55 | 1 of 3 |
| KSSQSVLYLVRNKNSVA | WASHRES | QQYHRLPLS | 5.21 | 2 of 3 |
| KSSQSVLYESRNKNSVD | NASTRES | QQYHPLPLS | 6.12 | 2 of 3 |
| KSSQSVLYSSRNKNSVA | WASTRES | QQYHDLDLS | 4.39 | 2 of 3 |
| KSSQSVLYESFNKNSVA | WRSTRES | QQYHRLCLS | no signal | 0 of 3 |
| KSSQSVLYESRNWNSVA | EASTRES | QVYHRLPLS | 1.52 | 3 of 3 |
| KSSQRVLYESENKNSVA | WASKRES | QQYHRLPLS | 3.32 | 3 of 3 |
| KSSQSFLYWSRNKNSVA | WASPRES | QQYHRLPLS | no signal | 0 of 3 |
| KSSQSTLYESRNNNSVA | WASTRES | QQYHRLPIS | 2.02 | 3 of 3 |
| KISQSVLYCSRNKNSVA | WANTRES | QQYHRLPLS | 1.52 | 3 of 3 |
| KRSQSVLYESRNKNSVA | TASTRES | NQYHRLPLS | no signal | 0 of 3 |
| KSSQSVLYESRNKNSVA | WASYRSS | VQYHRLPLS | no signal | 0 of 3 |
| KHSQSVLIESRNKNSVA | WAKTRES | QQYHRLPLS | 1.80 | 3 of 3 |

Picked from the list: the 9 lowest averages where every replicate gave a value.

CDR-L1	CDR-L2	CDR-L3	mean log10 Kd (nM)	replicates with signal
KSSQSVLYESRFKNSVA	GASTRES	QQYHRLPLS	0.13	3 of 3
KSSQSVLMESRNKNSVA	HASTRES	QQYHRYPLS	0.20	3 of 3
KSSQSGLYESRNKNSVA	WASIRES	QQYHMLPLS	0.33	3 of 3
KSSQSVLYESRNKNNVA	LASTRES	QQYHRLPLS	0.48	3 of 3
KSSQSVLYESRNKNSVA	WTSTREQ	QQYHRPPLS	0.70	3 of 3
KSSQSVLYESRNKHSVA	HASTRES	QQYHRLPLS	0.98	3 of 3
KSSQSVLYESTNLNSVA	WASTRES	QQYHFLPLS	0.98	3 of 3
KSSQSVLIESGNKNSVA	WASTRES	QQYHRLRLS	1.10	3 of 3
KASQSNLYESRNKESVA	WASTRES	QQYHRLPLS	1.30	3 of 3

Three control strains display no target. For library AAYL50, 18% of the pairings with them gave a signal, with a median of 4.19 and one signal in twenty below 2.99, so weak values seen in few replicates may be background.